Most compounds without a hit are left out; they make up all but 13% or so of the library.
ALDH1A1 inh: blocks purified human ALDH1A1 activity | P00352 | Purified ALDH1A1, NADH fluorescence, propionaldehyde substrate | Potency, µM (series often up to 75.3 µM), without a hit: at the highest dose activity, negative = inhibition, usual class: inhibitors | hit rate 7.3% among 220,000 | AID 1030; active = well fitted inhibition curve with a large enough effect, not every such curve was filed as active; inconclusive = small, poorly fitted or top-dose-only effect, or another doubt; inactive = no such curve, though single readings can be large or run the other way;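 also: potency is read from the fitted curve at half-maximal effect; plate controls were no enzyme wells and a reference inhibitor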
miR-21 reporter: miR-21 reporter, rising signal; HeLa miR-21 FLuc reporter, luciferase, 48 h; Potency, µM (top dose mostly 38.3 µM), without a hit: at the top dose reporter change, positive = more light; 340,000 tested, under 10 active; active = well fitted rising curve with a large enough effect; inconclusive = small, poorly fitted or top-dose-only effect; inactive = no such curve, though single readings can be large or run the other way;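 note: % of control where 0% means no effect; miR-21 action dims this reporter so a rising signal means less miR-21 action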
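HeLa cells endogenously expressing miR-21, stably carrying CMV-driven firefly luciferase with a downstream miR-21 binding site, 2000 cells/well. Titrations up to approximately 40 uM, 48 hours; luciferase luminescence read.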
Sfp PPTase inh: Sfp phosphopantetheinyl transferase inhibition; Q9F4F7; Biochemical Sfp PPTase activity, qHTS; Potency, µM, for the others: max response, negative = inhibition, most hits filed as inhibitors; 310,000 tested, 3.5% active; AID 1490; active = well fitted inhibition curve with a large enough effect; inconclusive = small, poorly fitted or top-dose-only effect, or another doubt; inactive = no such curve, though single readings can be large or run the other way;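 also: the enzyme is Sfp with the accession as filed and its product quenches rhodamine fluorescence; potency is read from the fitted curve at half-maximal effect; 0% = enzyme reaction without inhibitor and -100% = no enzyme wells; top concentration of the series not given in the record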
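Buffer: 50 mM Hepes-Na pH 7.6, 10 mM MgCl2, 0.01% Nonidet P-40, 0.01% BSA. Enzyme 15 nM, pre-exposed to compound 15 min; substrates then added and fluorescence change tracked over 30 min.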
Lamin A splicing: modulators of lamin A splicing; HeLa LMNA splicing GFP/RFP minigene ratio, 48 h; Potency, µM (top dose mostly 46.1 µM), for the others: top-dose ratio change, negative = inhibition, most hits filed as inhibitors; hit rate 0.01% among 200,000; active = well fitted inhibition curve with a large enough effect in the signal ratio, with a control signal flat, not every such curve was filed as active; inconclusive = small, poorly fitted or top-dose-only effect, or effect the other way, or a change in a side signal; the % refers to the signal ratio; also: potency is read from the fitted curve at half-maximal effect; % is scaled to controls: 0 for no effect and ±100 for the full control effect
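S3 HeLa stable clones carrying a lamin A-EGFP splicing minigene plus DsRed2 were seeded at 600 cells/well in Opti-MEM with 2% FBS, pin-dosed and incubated 48 h at 37°C. Acumen cytometry (488 nm) gave the GFP/RFP total-intensity ratio.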
G9a inh: inhibitors of human histone lysine methyltransferase G9a. hit rate 8.8% among 350,000. Potency, µM (doses to about 102 µM), inactives show top-dose activity, negative = inhibition, usual class: inhibitors. Q96KQ7. G9a H3K9 monomethylation, AlphaScreen, 2 h; also: potency is read from the fitted curve at half-maximal effect; % is scaled to controls: 0 for no effect and ±100 for the full control effect; nearly all actives have a fitted effect of over 75% in size
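G9a (20 nM) preincubated 15 min RT with compounds, then 500 nM biotinylated H3K9 peptide and 20 uM SAM added; 2 h RT reaction. Monomethyl-H3K9 product detected by AlphaScreen with anti-H3K9me1 antibody, streptavidin donor and anti-rabbit IgG acceptor beads.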
JMJD2E inh: inhibitors of human JMJD2E histone demethylase | hit rate 1.6% among 230,000 | JMJD2E catalytic domain, FDH-coupled NADH fluorescence (FDH is formaldehyde dehydrogenase) | Potency, µM (highest dose often 57.1 µM), without a hit: at the top dose activity change, negative = inhibition, hits mostly inhibitors; active = well fitted inhibition curve with a large enough effect, not every such curve was filed as active; inconclusive = small, poorly fitted or top-dose-only effect, or another doubt; inactive = no such curve, though single readings can be large or run the other way;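 also: potency is read from the fitted curve at half-maximal effect; 0% = wells with enzyme and -100% = buffer wells without enzyme; nearly all actives have a fitted effect of over 50% in size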
* hit, by the source's call; [ ] = dose if it differs, or a comment. Unless noted, calls follow the shape of the dose curve; as a rule, active = well fitted curve in the direction sought with a large enough effect; inconclusive = small, poorly fitted or top-dose-only effect, or another doubt; inactive = no such curve, though single readings can be large; an effect the other way counts as inactive or inconclusive.

Screening CNc1nc(Sc2ccccc2)cc(C(F)(F)F)n1 returned ALDH1A1 inh 35.5µM*, miR-21 reporter -8.7%, Sfp PPTase inh 11.0%, Lamin A splicing 11.4%, G9a inh 59.6%[59 µM] and JMJD2E inh -23.1%.
Screening COc1ccc(OC)c(C2CC(c3c(-c4ccccc4)c4cc(Cl)ccc4[nH]c3=O)=NN2S(C)(=O)=O)c1 (stereo not drawn) returned ALDH1A1 inh inconclusive, miR-21 reporter 0.0%, Sfp PPTase inh 44.7µM*, Lamin A splicing 6.7%, G9a inh 12.4%[59 µM] and JMJD2E inh inconclusive.
`COc1ccc(C2CC(c3c(-c4ccccc4)c4cc(Cl)ccc4[nH]c3=O)=NN2S(C)(=O)=O)cc1` (stereo not drawn) gave ALDH1A1 inh 0.398µM*, miR-21 reporter 9.5%, Sfp PPTase inh 3.3%, Lamin A splicing 8.5%, G9a inh 2.2%[12.7 µM] and JMJD2E inh -29.5%.
Screening COc1ccc2oc(/C=C/N(C)C)c(C(=O)c3ccc(Cl)cc3)c2c1 returned ALDH1A1 inh -7.3%, miR-21 reporter -4.7%, Sfp PPTase inh -6.4%, Lamin A splicing inconclusive, G9a inh 50.1µM* and JMJD2E inh 4.0%.
For COc1ccc(C(=O)c2oc3ccc(OC)cc3c2N)cc1 the results were ALDH1A1 inh inconclusive, miR-21 reporter -98.9%, Sfp PPTase inh -25.2%, Lamin A splicing inconclusive, G9a inh -4.0% and JMJD2E inh inconclusive.
Screening CC1=Nc2cc([N+](=O)[O-])ccc2NC(C)(C)C1 returned ALDH1A1 inh 11.2%, miR-21 reporter -51.6%, Sfp PPTase inh inconclusive, G9a inh 31.6µM* and JMJD2E inh -0.2%.
COc1ccccc1NC(=O)C1CCN(S(=O)(=O)c2ccc3c(c2)oc(=O)n3C)CC1 was read as miR-21 reporter -4.1% and G9a inh -3.7%[59 µM].
Screening COc1ccccc1/C=C\C(=O)NCC(=O)N/N=C/c1ccc(O)cc1O returned miR-21 reporter 15.0%, Sfp PPTase inh 22.7%, G9a inh 22.4% and JMJD2E inh inconclusive.
`Cc1nc2nc(C)c(NS(=O)(=O)c3ccc4c(c3)CCCC4)c(=O)n2[nH]1` gave miR-21 reporter -0.5%, Sfp PPTase inh 16.0% and G9a inh 70.8µM*.
`CCCc1nc2nc(C)c(NS(=O)(=O)c3ccc(F)cc3)c(=O)n2[nH]1` gave miR-21 reporter -3.8%, Sfp PPTase inh 19.0% and G9a inh 8.2%.

3 consecutive entries already listed, for reference:
Screening CNc1nc(Sc2ccccc2)cc(C(F)(F)F)n1 returned ALDH1A1 inh 35.5µM*, miR-21 reporter -8.7%, Sfp PPTase inh 11.0%, Lamin A splicing 11.4%, G9a inh 59.6%[59 µM] and JMJD2E inh -23.1%.
Screening COc1ccc(OC)c(C2CC(c3c(-c4ccccc4)c4cc(Cl)ccc4[nH]c3=O)=NN2S(C)(=O)=O)c1 (stereo not drawn) returned ALDH1A1 inh inconclusive, miR-21 reporter 0.0%, Sfp PPTase inh 44.7µM*, Lamin A splicing 6.7%, G9a inh 12.4%[59 µM] and JMJD2E inh inconclusive.
`COc1ccc(C2CC(c3c(-c4ccccc4)c4cc(Cl)ccc4[nH]c3=O)=NN2S(C)(=O)=O)cc1` (stereo not drawn) gave ALDH1A1 inh 0.398µM*, miR-21 reporter 9.5%, Sfp PPTase inh 3.3%, Lamin A splicing 8.5%, G9a inh 2.2%[12.7 µM] and JMJD2E inh -29.5%.

Other structures follow.
For CCCc1nc2nc(C)c(NS(=O)(=O)c3ccc([N+](=O)[O-])cc3)c(=O)n2[nH]1 the results were miR-21 reporter -0.9%, Sfp PPTase inh -8.4% and G9a inh 79.4µM*.
For Cc1ccc(-n2c(C)cc(/C=N/NC(=O)CC3(C)OCCO3)c2C)c(C)c1 the results were ALDH1A1 inh 14.1µM*, miR-21 reporter -6.1%, Sfp PPTase inh -0.2%, Lamin A splicing inconclusive, G9a inh inconclusive and JMJD2E inh -29.4%.
Screening Cc1cc(/C=N/NC(N)=O)c(C)n1-c1ccc(F)cc1 returned ALDH1A1 inh -0.3%, miR-21 reporter -6.8%, Sfp PPTase inh -21.4%, Lamin A splicing 20.2%[46 µM], G9a inh inconclusive and JMJD2E inh inconclusive.
Cc1cccc(C)c1-n1c(C)cc(/C=N/NC(=O)c2ccncc2)c1C was read as ALDH1A1 inh 28.2µM*, miR-21 reporter -5.8%, Sfp PPTase inh -23.5%, Lamin A splicing 22.6%, G9a inh inconclusive and JMJD2E inh 4.2%.
Screening Cc1ccc(-n2c(C)cc(/C=N/NC(=O)c3ccncc3)c2C)cc1C returned ALDH1A1 inh inconclusive, miR-21 reporter -3.5%, Sfp PPTase inh 6.3%, Lamin A splicing inconclusive, G9a inh 50.1µM* and JMJD2E inh inconclusive.
Cc1ccc2occ(/C=N/NC(=O)c3ccncc3)c(=O)c2c1 was read as miR-21 reporter 14.9% and Sfp PPTase inh 11.9%.
Screening Cc1ccc(-n2c(C)cc(/C=N/NC(=O)c3ccncc3)c2C)c(C)c1 returned ALDH1A1 inh 12.6µM*, miR-21 reporter 0.6%, Sfp PPTase inh 0.6%, Lamin A splicing inconclusive, G9a inh inconclusive and JMJD2E inh 1.1%.
For CCOc1ccccc1NC(=O)c1c(NCc2ccc(OC)c(OC)c2OC)sc2c1CCC(C)C2 (stereo not drawn) the results were miR-21 reporter -0.3%, Lamin A splicing -8.4%[46 µM] and G9a inh inconclusive.
`CCOC(=O)Cn1c(=O)n(CC2CCCO2)c2nc(-c3ccc(OCC)cc3)nc(C(N)=O)c21` (stereo not drawn) gave miR-21 reporter -1.9%, Lamin A splicing -2.4%[46 µM] and G9a inh 0.3%[59 µM].
`CC1(CC(=O)N/N=C/c2cc([N+](=O)[O-])c(O)cc2O)OCCO1` gave ALDH1A1 inh inconclusive, miR-21 reporter 0.9%, Sfp PPTase inh 6.0%, G9a inh 39.8µM* and JMJD2E inh 15.8µM*.
`Cc1cc(/C=N/NC(=O)c2ccncc2)c(C)n1-c1ccccc1` gave ALDH1A1 inh inconclusive, miR-21 reporter -49.2%, Sfp PPTase inh 9.0%, Lamin A splicing -3.2%, G9a inh inconclusive and JMJD2E inh -15.6%.
Cc1cc(/C=N/NC(N)=S)c(C)n1-c1ccc(Cl)c(Cl)c1 was read as ALDH1A1 inh 15.8µM*, miR-21 reporter inconclusive, Sfp PPTase inh inconclusive, Lamin A splicing inconclusive, G9a inh inconclusive and JMJD2E inh -25.6%.
CCc1ccc(-n2c(C)cc(/C=N/NC(=O)c3ccncc3)c2C)cc1 was read as ALDH1A1 inh 7.94µM*, miR-21 reporter 9.3%, Sfp PPTase inh -22.5% and JMJD2E inh 4.2%.
CCNC(=S)N/N=C/c1cc(C)n(-c2ccc(Cl)cc2)c1C was read as ALDH1A1 inh -1.0%, miR-21 reporter -38.0%, Sfp PPTase inh inconclusive, G9a inh inconclusive and JMJD2E inh -5.9%.
`COc1ccc(OC)c(CNC(=O)Cn2ncc3c([nH]c4ccc(C)cc43)c2=O)c1` gave miR-21 reporter -0.7%, Lamin A splicing inconclusive and G9a inh -7.2%[59 µM].
COc1ccc2c(c1)C(=O)[C@H](OC(=O)Nc1ccc(OC(F)F)cc1)[C@@H](c1ccc(OC)c(Br)c1)O2 was read as ALDH1A1 inh 3.8%, Sfp PPTase inh 15.6% and JMJD2E inh inconclusive.
COc1ccc(NC(=O)CCCn2c(=O)c3sccc3n(Cc3ccccc3)c2=O)cc1 was read as ALDH1A1 inh 7.7%, miR-21 reporter -16.6%, Sfp PPTase inh 11.0%, Lamin A splicing -5.3%, G9a inh -30.7% and JMJD2E inh -4.6%.

Screening results from PubChem BioAssay.
